In the assay the test system is Mus musculus. The assay is described as follows: Antinociceptive activity in sc dosed mouse assessed as inhibition of acetic acid-induced writhing administered 15 mins before acetic acid challenge.

SMILES strings stand for the structures.

Consider `CN(C(=O)Cc1ccc(Cl)c(Cl)c1)C1CCCCC1N1CCCC1` (stereo unspecified), for which the ED50 was determined as 1.16 mg/kg.

The ED50 is the dose at which the effect has come halfway, by size or by number of responders.

The values are drawn from ChEMBL document CHEMBL1142487, “Design, synthesis, and structure-activity relationship of novel opioid kappa-agonists” (Bioorg Med Chem, 2008).
